Test results published in US4950650A, “Novel arginine vasopressin-binding peptides” (University of Florida, priority 1988, dated 1990).

Test system: IL 2 help in IFN production
Test: IL 2 helper signal for IFN production in helper cell depleted spleen cell cultures
Type: cell-based, mouse
Conditions: Expt 1, IL 2 3 U/ml, no binding peptide

IL 2: recombinant human IL 2 (Hoffman-La Roche)
IFN: 300 ± 71 U/ml
